Test system: A431 epidermoid carcinoma xenografts
Experiment: Tumor growth inhibition, subcutaneous A431 xenografts
Format: in vivo, athymic nude mice
Protocol: Subcutaneous tumors of N87, LOVO, A431/Le^y, LS174T and L2987 were grown in athymic nude mice (Charles River, Wilmington, Mass.). Two-month-old female mice were injected with respectively 5×10^6 N87, LOVO, A431/Le^y or LS174T cells per mouse. L2987 cells were injected in male nude mice that were between 7 and 8 weeks old. To grow tumors, N87 cells had to be mixed (1:1, vol/vol) with […]® (Collaborative Biomedical Products, Belford, Mass.) prior to injection. Two perpendicular diameters of the tumor were measured by means of calipers at time intervals specified in the result section. The tumor volume was calculated according to the formula of Attia&Weiss: A^2×B×0.4. […]
Table 1 (CD33-expression on carcinoma cells in vitro) lists the cell lines used to generate xenografts in nude mice and their expression of CD33 as measured by flow cytometry. […]
As shown in Table 2 (tumor volume reduction of CD33-tumor xenografts following treatment (T) with hp67.6-AcBut-CalichDMH and expressed as a percentage of controls treated with vehicle (T/C %)), hp67.6-AcBut-CalichDMH inhibited tumor growth of human tumor xenografts with diverse histiotypic origin. […] This value is the average tumor volume of a group of mice that were treated with hp67.6-AcBut-CalichDMH (T) expressed as a percentage of the average tumor volume of a control group (C). […]

Substance: HSA-AcPAc-CalichDMH: human serum albumin conjugated to CalichDMH with the AcPAc linker
- efficacy on growth of A431 xenografts (AcPAc conjugates, intraperitoneally Q4D×3, same experiment (FIG. 4A, 4B)): marginal
- T/C (another experiment (xenograft not named, A431 assumed), 20 days after administration of 4 μg/mouse Q4D×3): 39%
